# Test results taken from patent US20140171466A1, “PAIN MANAGEMENT IN SICKLE CELL ANEMIA” (priority 2012, published 2014).
# Amino acid sequences for entries named in this document (tags omitted). A change or cut given only in a name is not applied to a line headed by its entry.
# UniProt P41145: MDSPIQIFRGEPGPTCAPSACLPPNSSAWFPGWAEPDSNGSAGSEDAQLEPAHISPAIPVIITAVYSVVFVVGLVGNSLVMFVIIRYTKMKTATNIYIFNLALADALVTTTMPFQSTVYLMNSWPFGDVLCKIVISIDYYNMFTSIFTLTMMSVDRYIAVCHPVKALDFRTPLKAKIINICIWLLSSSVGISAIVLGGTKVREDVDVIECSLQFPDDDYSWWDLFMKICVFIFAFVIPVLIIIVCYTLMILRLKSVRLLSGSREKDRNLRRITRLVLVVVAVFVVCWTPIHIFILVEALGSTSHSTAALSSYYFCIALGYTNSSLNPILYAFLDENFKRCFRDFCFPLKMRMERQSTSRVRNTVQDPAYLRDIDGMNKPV
# UniProt P41146: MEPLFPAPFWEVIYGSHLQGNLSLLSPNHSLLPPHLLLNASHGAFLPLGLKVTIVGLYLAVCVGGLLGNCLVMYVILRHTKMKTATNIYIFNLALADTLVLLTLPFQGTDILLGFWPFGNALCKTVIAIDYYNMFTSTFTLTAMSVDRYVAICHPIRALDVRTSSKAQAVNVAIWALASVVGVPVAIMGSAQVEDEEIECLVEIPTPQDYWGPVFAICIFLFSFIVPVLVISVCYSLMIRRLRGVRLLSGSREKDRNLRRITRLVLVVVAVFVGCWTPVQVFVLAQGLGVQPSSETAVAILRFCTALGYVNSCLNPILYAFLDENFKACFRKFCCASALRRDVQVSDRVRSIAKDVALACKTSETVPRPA
# UniProt P35372, whole entry, looked up: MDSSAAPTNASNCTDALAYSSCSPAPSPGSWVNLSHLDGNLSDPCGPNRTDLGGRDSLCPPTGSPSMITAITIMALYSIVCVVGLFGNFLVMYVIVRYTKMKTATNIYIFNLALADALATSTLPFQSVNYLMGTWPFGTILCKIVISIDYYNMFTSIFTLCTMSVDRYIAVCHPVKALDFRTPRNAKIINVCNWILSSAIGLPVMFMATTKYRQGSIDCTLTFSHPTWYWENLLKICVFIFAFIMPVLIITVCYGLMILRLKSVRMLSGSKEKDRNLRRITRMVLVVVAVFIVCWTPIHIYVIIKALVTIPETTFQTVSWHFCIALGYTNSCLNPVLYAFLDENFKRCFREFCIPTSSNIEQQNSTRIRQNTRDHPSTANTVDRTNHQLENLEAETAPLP
# Key:
# κ receptors [1] = target: T1, κ receptors (Homo sapiens, UniProt P41145); experiment: [35S]GTPγS binding assay K; details: for EC50: read-out: [35S]GTPγS K EC50
# mice = experiment: Catalepsy (time spent on the bar)
# [2] = tested on: HbSS-BERK and HbAA-BERK mice; experiment: Grip force (deep tissue hyperalgesia); details: for grip force vs immediately after H/R: injected following H/R
# [3] = tested on: HbSS-BERK and HbAA-BERK mice; experiment: Withdrawal responses to cold (cold plate); details: for PWF to cold vs immediately after H/R / PWL to cold vs immediately after H/R: injected following H/R; for cold sensitivity (PWL and PWF to cold): no H/R
# [4] = tested on: HbSS-BERK and HbAA-BERK mice; experiment: Dorsal skin temperature, infrared thermography
# [5] = tested on: HbSS-BERK and HbAA-BERK mice; experiment: Withdrawal responses to heat (PWL, Hargreaves test); details: for sensitivity to heat: no H/R; for PWL to heat vs baseline / PWL to heat vs immediately after H/R: treated following H/R
# [6] = tested on: HbSS-BERK and HbAA-BERK mice; experiment: Dorsal cutaneous blood flow, laser doppler velocimetry; details: for dorsal cutaneous blood flow: no H/R
# [7] = tested on: HbSS-BERK and HbAA-BERK mice; experiment: Mechanical paw withdrawal threshold, von Frey filaments; details: for mechanical withdrawal threshold vs baseline: after injection
# [8] = tested on: HbSS-BERK and HbAA-BERK mice; experiment: Paw withdrawal frequency (PWF) to 9.8 mN von Frey monofilament; details: for PWF (9.8 mN von Frey) vs baseline / PWF vs vehicle-treated mice: no H/R; for PWF vs vehicle-treated mice: up to 24 h after injection
# NOP receptor [9] = target: T2, NOP receptor (Homo sapiens, UniProt P41146); details: cited from earlier work
# mu [10] = target: T3, mu (Homo sapiens, UniProt P35372); details: read-out: mu Ki; cited from earlier work
# δ [11] = target: T4, δ (Homo sapiens, UniProt P41143); details: read-out: δ Ki; cited from earlier work
# NOP receptor [12] = target: T2, NOP receptor; experiment: [35S]GTPγS binding assay NOP; details: for EC50: read-out: [35S]GTPγS NOP EC50
# κ receptors [13] = target: T1, κ receptors; experiment: Receptor binding K (Table 1); details: read-out: Receptor Binding Ki (nM) K
# NOP receptor [14] = target: T2, NOP receptor; details: read-out: binding affinity Ki at the NOP receptor; cited from earlier work
# δopioid receptor = δopioid receptor (Homo sapiens, UniProt P41143); details: read-out: Ki at the δ opioid receptor; cited from earlier work
# κ opioid receptor = κ opioid receptor (Homo sapiens, UniProt P41145); details: read-out: Ki at the κ opioid receptor; cited from earlier work
# NOP receptor [15] = target: T2, NOP receptor; details: read-out: EC50, stimulation of [35S]GTPγS binding to the NOP receptor; cited from earlier work
# mu [16] = target: T3, mu; details: read-out: Binding affinity Ki mu; cited from earlier work
# mu [17] = target: T3, mu; details: cited from earlier work
# δ [18] = target: T4, δ; details: cited from earlier work
# κ receptors [19] = target: T1, κ receptors; details: cited from earlier work
# [20] = HbAA-BERK mice, no H/R, up to 180 min
# [21] = HbSS-BERK mice, following H/R, up to 24 h
# [22] = HbSS-BERK mice, injected following H/R
smiles,measurement,setting,value
"O=C1Cc2ccccc2N1C1CCN(C2CCCCCCC2)CC1 [Compound 3, 1-(1-cyclooctylpiperidin-4-yl)-indolin-2-one]",EC50,κ receptors [1],276 nM
same,time spent on the bar vs vehicle-treated mice,mice; at any time points,no significant difference
same,catalepsy,mice; mice injected with AT-200,did not exhibit catalepsy
same,grip force vs immediately after H/R,[2]; HbAA-BERK mice,significant increase in grip force at 30 min and remained increased up to 24 h
same,grip force vs vehicle-treated mice,[2]; [20],remained significantly increased
same,grip force vs vehicle-treated mice,[2]; [21],remained significantly increased
same,grip force vs immediately after H/R,[2]; HbSS-BERK mice,remained increased in AT-200-treated mice up to 24 h and returned to baseline at 240 min of injection
same,grip force vs baseline,"[2]; HbSS-BERK mice, no H/R",increased after 30 min of injection and remained increased until 180 min
same,grip force vs vehicle-treated mice,"[2]; HbSS-BERK mice, no H/R, up to 180 min",remained significantly increased
same,PWF to cold vs immediately after H/R,[3]; HbAA-BERK mice,decrease in PWF to cold from 30 min to 24 h
same,PWL to cold vs immediately after H/R,[3]; HbAA-BERK mice,significant increase in PWL to cold from 30 min to 90 min
same,cold sensitivity (PWL and PWF to cold),[3]; HbAA-BERK mice,significant decrease in cold sensitivity following AT-200 treatment from 30 min to 180 min
same,PWF to cold vs immediately after H/R,[3]; HbSS-BERK mice,decrease in PWF to cold up to 24 h
same,PWL to cold vs immediately after H/R,[3]; HbSS-BERK mice,sustained increase in PWL to cold
same,cold sensitivity (PWL and PWF to cold),[3]; HbSS-BERK mice,significant decrease in cold sensitivity following AT-200 treatment from 30 min to 180 min
same,dorsal skin temperature,"[4]; HbAA-BERK mice, no H/R",Neither treatment group in the HbAA-BERK mice showed any changes
same,skin temperature vs baseline and immediately after H/R injury,"[4]; HbAA-BERK mice, treated following H/R","did not exhibit any changes in skin temperature as compared to baseline and immediately after H/R injury, except for at 24 h"
same,dorsal skin temperature vs baseline,"[4]; HbSS-BERK mice, no H/R",significant decrease in dorsal skin temperature 24 h after injection
same,skin temperature vs immediately after H/R,"[4]; HbSS-BERK mice, treated following H/R",significant decrease in skin temperature from 30 min to 24 h after treatment
same,sensitivity to heat,[5]; HbAA-BERK mice,only to 180 min in HbAA-BERK
same,PWL to heat vs baseline,[5]; HbAA-BERK mice,returned to baseline at 24 h
same,PWL to heat vs immediately after H/R,[5]; HbAA-BERK mice,significant increase in PWL to heat following AT-200 treatment from 30 min to 24 h
same,sensitivity to heat,[5]; HbSS-BERK mice,Sustained decrease in sensitivity to heat was observed in HbSS-BERK from 30 min to 24 h
same,PWL to heat vs baseline,[5]; HbSS-BERK mice,remained increased up to 24 h as compared to baseline
same,PWL to heat vs immediately after H/R,[5]; HbSS-BERK mice,significant increase in PWL to heat following AT-200 treatment from 30 min to 24 h
same,dorsal cutaneous blood flow,[6]; HbAA-BERK mice,Neither HbSS-BERK nor HbAA-BERK mice showed any changes
same,dorsal cutaneous blood flow vs immediately after H/R injury,[6]; [22],significant decrease in blood flow after 60 min to 24 h after injection
same,dorsal cutaneous blood flow,[6]; HbSS-BERK mice,Neither HbSS-BERK nor HbAA-BERK mice showed any changes
same,withdrawal threshold vs vehicle-treated mice,"[7]; HbAA-BERK mice, following H/R, up to 90 min",remained significantly increased
same,withdrawal threshold vs baseline,"[7]; HbAA-BERK mice, injected following H/R injury","increase in withdrawal threshold occurred in HbAA-BERK following 30 min of injection, but returned to baseline after 240 min"
same,mechanical withdrawal threshold vs baseline,"[7]; HbAA-BERK mice, no H/R","increase in withdrawal threshold occurred in HbAA-BERK following 90 min of injection, but returned to baseline after 24 h"
same,withdrawal threshold vs vehicle-treated mice,[7]; [20],remained significantly increased
same,withdrawal threshold vs vehicle-treated mice,[7]; [21],remained significantly increased
same,mechanical withdrawal threshold vs baseline and immediately after H/R,"[7]; HbSS-BERK mice, injected following H/R injury",significant increase in mechanical withdrawal threshold obtained using von Frey monofilaments after 30 min of injection and remained increased after 24 h
same,mechanical withdrawal threshold vs baseline,"[7]; HbSS-BERK mice, no H/R",increased after 30 min of injection of AT-200 and remained increased after 24 h
same,withdrawal threshold vs vehicle-treated mice,"[7]; HbSS-BERK mice, no H/R, up to 24 h",remained significantly increased
same,PWF (9.8 mN von Frey) vs immediately after H/R,"[8]; HbAA-BERK mice, injected following H/R",remained lower up to 24 h as compared to H/R and returned to baseline at 240 minutes
same,PWF (9.8 mN von Frey) vs baseline,[8]; HbAA-BERK mice,decreased after 30 min of injection and remained decreased after 24 h
same,PWF vs vehicle-treated mice,[8]; HbAA-BERK mice,remained significantly decreased
same,PWF (9.8 mN von Frey) vs baseline and immediately after H/R,[8]; [22],significantly decreased after 30 min of injection of Compound 3 and remained decreased after 24 h
same,PWF (9.8 mN von Frey) vs baseline,[8]; HbSS-BERK mice,decreased after 30 min of injection and remained decreased after 24 h
same,PWF vs vehicle-treated mice,[8]; HbSS-BERK mice,remained significantly decreased
CC(C)C1CCC(N2CCC(O)(c3cccc(C(F)(F)F)c3)CC2)CC1 (stereo not shown),Selectivity mu/NOP,NOP receptor [9],3
same,Ki,"NOP receptor [9]; read-out: NOP Ki, recombinant HEK-293 cells",12 nM
same,Ki,mu [10],36 nM
same,Ki,δ [11],5670 nM
CC(C)C1CCC(N2CCC(N3C(=O)Cc4ccccc43)CC2)CC1 (stereo not shown),EC50,κ receptors [1],> 10000 nM
same,EC50,NOP receptor [12],26 nM
O=C1Cc2ccccc2N1C1CCN(C2CCC3CCCc4cccc2c43)CC1 (stereo not shown),EC50,κ receptors [1],> 10000 nM
same,Ki,κ receptors [13],681 nM
NC(=O)[C@@]1(c2ccccc2)C[C@H]2CC[C@@H](C1)N2C(c1ccccc1Cl)c1ccccc1Cl,Ki,NOP receptor [14],1.7 nM
same,Ki,δopioid receptor,2330 nM
same,Ki,κ opioid receptor,268 nM
same,EC50,NOP receptor [15],6 nM
"CC1(N2CCC(n3c([C@@H]4CCCNC4)nc4ccccc43)CC2)CCCCCCC1 [Compound 10, 1-[1-(1-methylcyclooctyl)-4-piperidinyl]-2-[(3R)-3-piperidinyl]-1H-benzimidazole]",Ki,mu [16],1.05 nM
same,Emax (%) mu,mu [17]; percentage of maximal response of DAMGO,30%
same,EC50,"mu [17]; read-out: Functional activity [35S]GTPγS EC50 mu, CHO-K1 cells",34 nM
same,Emax (%) δ,δ [18]; percentage of maximal response of DPDPE,43%
same,EC50,"δ [18]; read-out: Functional activity [35S]GTPγS EC50 δ, CHO-K1 cells",80 nM
same,Emax (%) κ,κ receptors [19]; percentage of maximal response of enadoline,79%
same,EC50,"κ receptors [19]; read-out: Functional activity [35S]GTPγS EC50 κ, HEK-293 cells",4700 nM
CCC1C(=O)N(C2CCN(C3CCC(C(C)C)CC3)CC2)c2ccccc21 (stereo not shown),EC50,κ receptors [1],> 10000 nM
same,Ki,κ receptors [13],82.4 nM
O=C1Cc2ccccc2N1C1CCN(C2C3CCCC2CCC3)CC1 (stereo not shown),EC50,κ receptors [1],> 10000 nM
same,EC50,NOP receptor [12],28 nM
CC(C)[C@H]1CC[C@@H](N2CCC3(CC2)C(=O)N(CC(=O)OC(C)(C)C)CN3c2ccccc2)CC1,[35S]GTPγS K % Stim,κ receptors [1],11 ± 2%
same,EC50,κ receptors [1],271 nM
same,Ki,κ receptors [13],270 nM
same,[35S]GTPγS NOP % Stim,NOP receptor [12]; full agonist N/OFQ as standard,81 ± 13%
same,EC50,NOP receptor [12],19 nM

# Read-outs that look alike come from different tables or passages of the source.
